For assay [1], the target named is T1, C5a receptor (Homo sapiens, UniProt P21730).
T1 sequence (P21730 1-350): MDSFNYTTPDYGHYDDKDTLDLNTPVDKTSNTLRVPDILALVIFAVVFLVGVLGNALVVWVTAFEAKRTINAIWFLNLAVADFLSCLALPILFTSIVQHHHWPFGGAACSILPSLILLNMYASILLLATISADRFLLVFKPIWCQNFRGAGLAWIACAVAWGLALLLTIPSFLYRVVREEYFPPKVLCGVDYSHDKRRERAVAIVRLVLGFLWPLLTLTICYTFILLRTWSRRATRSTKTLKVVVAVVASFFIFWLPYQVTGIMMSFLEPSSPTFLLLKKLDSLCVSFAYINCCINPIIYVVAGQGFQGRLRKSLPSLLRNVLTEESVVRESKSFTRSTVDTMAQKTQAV
In words: biochemical.

Assay [2] deals with T1, C5a receptor. Briefly: Calcium Mobilization Assay (C5a-induced Ca2+ mobilization, FLIPR, differentiated U937 cells). It is filed as cell-based. More on the design: endogenous in cells; host or cells: U937 cells differentiated with dibutyryl cAMP. Particulars: […] recombinant human C5a, 20 min pre-incubation, multiple values = duplicate experiments, read-out: C5a Induced Ca Mobil. Average IC50. The protocol:
U937 cells (human monocytic cell line) were cultured in RPMI-1640 medium supplemented with 10% fetal bovine serum, 10 mM HEPES, 0.11 g/L pyruvate, 0.29 g/L L-glutamine, 100 IU/mL penicillin G and […] streptomycin. Dibutyryl cAMP (1 mM) was added to induce differentiation 2 or 3 days prior to loading the cells with 4.4 μM Fluo-3AM (Molecular Probes) for 30 min at 37° C. in RPMI medium containing 20 mM HEPES, 0.1% bovine serum albumin (BSA) and 5 mM probenecid. After washing, cells were dissolved at 2×10^6 cells/ml in HBSS buffer (Invitrogen 14190-094) supplemented with 10 mM HEPES, 2.5 mM probenecid and 0.1% BSA (pH=7.4), and sedimented by 1 min centrifugation (1500 rpm) in black 96-well plates (Costar) (200,000 cells/well). A 100× concentration range of test compounds was prepared in DMSO and further diluted in HBSS buffer. U937 cells were pre-incubated with compound for 20 minutes at room temperature (1% DMSO), before recombinant human C5a (Sigma) was added to the cells (1.5 nM). Changes in intracellular free Ca^2+ concentration were measured using the Fluorescent Imaging Plate Reader (FLIPR, Molecular Devices). Fluorescence was recorded every second from 10 seconds before the addition of C5a until 2 min after the addition. The maximal fluorescence obtained during this time frame was used for further calculations.

In assay [3] the target is T1, C5a receptor. In words: [125I]-C5a Radioligand Binding Assay (competition binding, differentiated U937 cells).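 Also: cells preincubated with compound 30 min at room temperature, then 60 min at 4 °C with radioligand, bound counts read by scintillation, nonspecific binding defined with 100 nM C5a.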

“And” between values parts separate entries of the source, which are not always exact repeats. Identical values can stand only once.

Usually Ki stands for the equilibrium dissociation constant of an inhibitor or competing ligand from its target. In general, IC50 refers to the concentration at which inhibition is half-maximal. Regarding `CCc1cccc(CC)c1-c1cc(OC)c2c(n1)CCCC2N(CC)c1cccc2ccccc12` (racemic) [Compound 12, (±)-[2-(2,6-Diethyl-phenyl)-4-methoxy-5,6,7,8-tetrahydro-quinolin-5-yl]-ethyl-naphthlen-1-yl-amine], on C5a receptor [1], the inhibition constant Ki was 10 nM and 7.8 nM. Moreover, on C5a receptor [2], the IC50 worked out at 94 nM.

For `CCc1cccc(CC)c1-c1cc(OC)c2c(n1)CCCC2N(CC)c1cccc2ccccc12` (single isomer, unassigned) [Compound 152], the IC50 at C5a receptor [2] is > 10000 nM.

What is called inhibition is the share of the control response that was lost under treatment. For the molecule `CCc1cccc(CC)c1-c1cc(OC)c2c(n1)CCCC2Nc1ccccc1C(F)(F)F` (centres unmarked) [Compound 120], the inhibition at 1 µM on C5a receptor [3] (read-out: [125I]-C5a Binding % Inhibition 1 μM) was 75%. The inhibition at 10 µM on C5a receptor [3] (read-out: [125I]-C5a Binding % Inhibition 10 μM) amounted to 82%.

Source of the values: patent US20090048295A1, “SUBSTITUTED 5,6,7,8-TETRAHYDROQUINOLINE DERIVATIVES, COMPOSITIONS, AND METHODS OF USE THEREOF” (priority 2007, published 2009).
